Biological target: Ataxia Telangiectasia Mutated (ATM) kinase (Homo sapiens, UniProt Q13315)
Settings: ATM inhibitor project

Sequences of proteins named here, by UniProt entry; tags and fusion partners are left off.
UniProt Q13315, whole entry, species assumed, stated change not applied: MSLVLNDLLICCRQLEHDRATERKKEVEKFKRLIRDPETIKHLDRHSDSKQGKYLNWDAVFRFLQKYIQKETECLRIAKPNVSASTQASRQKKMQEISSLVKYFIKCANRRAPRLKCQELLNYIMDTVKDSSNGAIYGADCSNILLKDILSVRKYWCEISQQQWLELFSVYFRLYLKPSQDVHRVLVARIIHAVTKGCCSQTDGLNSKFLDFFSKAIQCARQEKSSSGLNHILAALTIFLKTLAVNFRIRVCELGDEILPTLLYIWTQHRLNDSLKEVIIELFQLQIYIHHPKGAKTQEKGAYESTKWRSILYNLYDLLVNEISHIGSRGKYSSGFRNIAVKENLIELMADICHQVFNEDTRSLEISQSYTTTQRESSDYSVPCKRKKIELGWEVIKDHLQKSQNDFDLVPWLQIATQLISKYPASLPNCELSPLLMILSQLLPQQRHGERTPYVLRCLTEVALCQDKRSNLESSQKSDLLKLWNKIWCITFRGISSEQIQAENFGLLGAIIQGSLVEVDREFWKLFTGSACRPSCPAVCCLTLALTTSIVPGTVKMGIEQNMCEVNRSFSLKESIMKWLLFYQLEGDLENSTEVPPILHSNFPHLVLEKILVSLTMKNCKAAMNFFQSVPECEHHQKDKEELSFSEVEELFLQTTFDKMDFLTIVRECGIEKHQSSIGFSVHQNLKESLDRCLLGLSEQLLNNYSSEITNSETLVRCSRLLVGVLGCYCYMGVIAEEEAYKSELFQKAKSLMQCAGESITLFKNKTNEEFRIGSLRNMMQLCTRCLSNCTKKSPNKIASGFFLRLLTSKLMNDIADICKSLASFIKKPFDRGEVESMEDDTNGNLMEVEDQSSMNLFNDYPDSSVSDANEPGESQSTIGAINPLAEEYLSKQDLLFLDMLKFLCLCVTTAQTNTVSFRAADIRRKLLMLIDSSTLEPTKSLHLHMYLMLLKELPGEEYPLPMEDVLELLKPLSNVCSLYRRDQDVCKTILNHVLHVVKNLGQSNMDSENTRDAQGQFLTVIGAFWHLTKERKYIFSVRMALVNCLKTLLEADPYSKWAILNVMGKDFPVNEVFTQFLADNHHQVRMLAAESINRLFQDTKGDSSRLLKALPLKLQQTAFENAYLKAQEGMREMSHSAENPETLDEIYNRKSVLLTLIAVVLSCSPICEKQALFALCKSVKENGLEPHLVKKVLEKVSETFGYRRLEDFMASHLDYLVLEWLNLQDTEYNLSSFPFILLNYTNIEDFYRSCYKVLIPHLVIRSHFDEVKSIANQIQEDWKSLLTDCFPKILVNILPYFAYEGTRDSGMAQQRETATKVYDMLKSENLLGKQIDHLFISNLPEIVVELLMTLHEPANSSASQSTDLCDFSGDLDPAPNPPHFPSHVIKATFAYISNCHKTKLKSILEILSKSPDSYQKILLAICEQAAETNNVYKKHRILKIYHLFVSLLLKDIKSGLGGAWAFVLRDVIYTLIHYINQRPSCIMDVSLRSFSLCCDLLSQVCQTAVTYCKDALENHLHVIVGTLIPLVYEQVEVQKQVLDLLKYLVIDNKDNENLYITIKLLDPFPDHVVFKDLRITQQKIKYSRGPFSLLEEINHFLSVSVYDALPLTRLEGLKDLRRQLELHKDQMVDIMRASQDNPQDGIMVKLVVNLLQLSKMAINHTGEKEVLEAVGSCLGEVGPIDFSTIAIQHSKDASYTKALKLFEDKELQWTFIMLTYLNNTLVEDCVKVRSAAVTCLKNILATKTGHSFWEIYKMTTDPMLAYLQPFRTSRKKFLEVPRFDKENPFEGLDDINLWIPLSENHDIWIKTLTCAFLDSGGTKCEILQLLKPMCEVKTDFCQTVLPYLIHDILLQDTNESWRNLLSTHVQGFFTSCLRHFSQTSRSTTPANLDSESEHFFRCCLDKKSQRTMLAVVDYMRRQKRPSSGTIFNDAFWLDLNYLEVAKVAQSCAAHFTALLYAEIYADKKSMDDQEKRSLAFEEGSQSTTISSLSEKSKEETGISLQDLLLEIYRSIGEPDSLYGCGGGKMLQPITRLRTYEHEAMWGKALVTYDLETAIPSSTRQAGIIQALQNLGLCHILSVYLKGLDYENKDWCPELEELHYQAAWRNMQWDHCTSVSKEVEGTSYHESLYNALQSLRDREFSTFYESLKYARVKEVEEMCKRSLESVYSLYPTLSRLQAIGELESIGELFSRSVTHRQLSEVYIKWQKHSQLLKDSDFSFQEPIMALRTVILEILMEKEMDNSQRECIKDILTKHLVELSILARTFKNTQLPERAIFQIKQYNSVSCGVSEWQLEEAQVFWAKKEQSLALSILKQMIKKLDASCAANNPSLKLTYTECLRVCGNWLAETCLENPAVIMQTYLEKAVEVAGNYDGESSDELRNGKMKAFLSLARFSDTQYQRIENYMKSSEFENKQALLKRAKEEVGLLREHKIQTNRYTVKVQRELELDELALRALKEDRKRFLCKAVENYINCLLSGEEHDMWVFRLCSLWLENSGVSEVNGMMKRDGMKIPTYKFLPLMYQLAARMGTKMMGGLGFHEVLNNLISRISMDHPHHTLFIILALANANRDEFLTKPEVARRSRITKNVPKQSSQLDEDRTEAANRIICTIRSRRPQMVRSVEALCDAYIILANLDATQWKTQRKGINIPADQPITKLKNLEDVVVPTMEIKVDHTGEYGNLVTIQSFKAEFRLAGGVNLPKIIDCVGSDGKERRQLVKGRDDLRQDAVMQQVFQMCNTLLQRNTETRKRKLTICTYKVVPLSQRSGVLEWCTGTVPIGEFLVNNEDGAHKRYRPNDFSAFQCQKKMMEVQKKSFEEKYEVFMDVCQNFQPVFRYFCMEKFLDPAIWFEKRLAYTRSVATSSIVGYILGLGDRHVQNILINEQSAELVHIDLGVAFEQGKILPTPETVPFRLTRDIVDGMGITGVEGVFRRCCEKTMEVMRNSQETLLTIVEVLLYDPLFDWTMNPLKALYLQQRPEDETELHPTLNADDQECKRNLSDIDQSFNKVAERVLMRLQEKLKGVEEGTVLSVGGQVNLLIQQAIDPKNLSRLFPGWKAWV

Compound: CN(C)CCCOc1ccc(-c2ccc3ncc4c(c3c2)n(C2CCOCC2)c(=O)n4C)cn1 [published candidate drug, 8-{6-[3-(Dimethylamino)propoxy]pyridin-3-yl}-3-methyl-1-(tetrahydro-2 H-pyran-4-yl)-1,3-dihydro-2 H-imidazo[4,5-c]quinolin-2-one]
- potency on the target protein (in words): sub-nM potency
